Ab-95 light chain CDR variants: yeast mating affinities

The measurements come from Engelhart et al. 2022 (doi:10.1038/s41597-022-01779-4) through the FLAb antibody collection.

Binding partner: SARS-CoV-2 spike HR2 peptide, sequence PDVDLGDISGINAS.

Ab-95 is the parent antibody, in scFv form: VH, then a 15-residue (Gly4Ser)3 linker, then VL. The heavy chain is unchanged in all variants.
VH: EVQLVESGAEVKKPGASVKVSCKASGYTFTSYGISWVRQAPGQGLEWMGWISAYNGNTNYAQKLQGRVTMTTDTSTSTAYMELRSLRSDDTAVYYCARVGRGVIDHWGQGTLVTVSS
VL: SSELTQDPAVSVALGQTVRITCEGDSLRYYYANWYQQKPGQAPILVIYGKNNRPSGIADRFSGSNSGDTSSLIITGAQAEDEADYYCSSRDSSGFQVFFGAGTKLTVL

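The starting antibody came from a phage panning campaign against this peptide. In library AAYL52, one, two or three CDR residues were substituted; doubles and triples were drawn at random. The assay is AlphaSeq: two haploid yeast populations carry antibody and antigen on their surface. The frequency of each diploid, read from paired DNA barcodes, reflects how well the two displayed proteins bind. Read counts were normalised to the haploid input and turned into Kd by a linear fit to BCL2-family pairs of known affinity, for each replicate. The assay was run in three technical replicates.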

Substitutions are numbered in sequence along the VL above, starting at 1 (not Kabat).
Scale: log10 of Kd in nM, estimated from mating counts; low values are strong binders.
Replicates are averaged; those with no signal do not enter the mean.
"nd" marks a missing value. The strain was present, yet no cells mated with the target were sequenced in any replicate, which points to weak or no binding.
Nonspecific signal, from three strains lacking the peptide, appeared in 28% of pairings of library AAYL52, centred on 3.91 (5% of these signals below 2.90); values are not corrected for it.
In this assay the parent's reference entry averaged 2.31; its copy inside this library read 2.25.

{"changes": "S89F D91E V97G", "mean log10 Kd (nM)": "3.19", "seen in": "3 of 3"}
{"changes": "L27A Y31C Q96V", "mean log10 Kd (nM)": "3.61", "seen in": "3 of 3"}
{"changes": "L27Q Y30D R53V", "mean log10 Kd (nM)": "3.71", "seen in": "3 of 3"}
{"changes": "E23M Y31F R90C", "mean log10 Kd (nM)": "4.36", "seen in": "1 of 3"}
{"changes": "S55V R90E S92A", "mean log10 Kd (nM)": "3.48", "seen in": "1 of 3"}
{"changes": "G24Q Y30Q P54E", "mean log10 Kd (nM)": "3.09", "seen in": "3 of 3"}
{"changes": "N52H S88G V97M", "mean log10 Kd (nM)": "4.46", "seen in": "2 of 3"}
{"changes": "K50R S92K G94Q", "mean log10 Kd (nM)": "2.41", "seen in": "3 of 3"}
{"changes": "G24N Y31Q P54C", "mean log10 Kd (nM)": "nd", "seen in": "0 of 3"}
{"changes": "L27I R53I F98N", "mean log10 Kd (nM)": "nd", "seen in": "0 of 3"}
{"changes": "S26F Y29W P54V", "mean log10 Kd (nM)": "1.69", "seen in": "3 of 3"}
{"changes": "G24L L27Q G94D", "mean log10 Kd (nM)": "5.05", "seen in": "1 of 3"}
{"changes": "E23W S55A G94F", "mean log10 Kd (nM)": "4.26", "seen in": "3 of 3"}
{"changes": "D25M Y31S A32Y", "mean log10 Kd (nM)": "3.56", "seen in": "2 of 3"}
{"changes": "R28H R90M F95N", "mean log10 Kd (nM)": "5.63", "seen in": "1 of 3"}
{"changes": "D25S Y29C R90K", "mean log10 Kd (nM)": "nd", "seen in": "0 of 3"}
{"changes": "Y29G K50L P54S", "mean log10 Kd (nM)": "2.31", "seen in": "3 of 3"}
{"changes": "R53D P54S S93Q", "mean log10 Kd (nM)": "5.09", "seen in": "1 of 3"}
{"changes": "G49E R90L", "mean log10 Kd (nM)": "nd", "seen in": "0 of 3"}
{"changes": "Y30Q S89L", "mean log10 Kd (nM)": "2.00", "seen in": "3 of 3"}
{"changes": "D25I S89G", "mean log10 Kd (nM)": "1.82", "seen in": "3 of 3"}
{"changes": "R28S N33W Q96D", "mean log10 Kd (nM)": "3.65", "seen in": "1 of 3"}

The first 3 variants above that were never detected:

changes	mean log10 Kd (nM)	seen in
G24N Y31Q P54C	nd	0 of 3
L27I R53I F98N	nd	0 of 3
D25S Y29C R90K	nd	0 of 3